# Measured values as given in US12171806B2, “Therapeutic regimens and methods for lowering blood glucose and/or body weight using GLP-1R and GCGR balanced agonists” (priority 2021, dated 2024).
# Assays:
# [1] = Good Laboratory Practice toxicology study, NOAEL in monkeys; assay type: in vivo
# Description: The maximal recommended starting dose (MRSD) in Part 1 is based on one tenth the human equivalent dose (HED) at the NOAEL determined in animals (rats and monkeys) in the pivotal Good Laboratory Practice toxicology study. […] The rat NOAEL was the high dose, 0.45 mg/kg/week, which is equivalent to 0.44 mg/wk in a 60 kg human based on body surface area scaling. […] Using a 10-fold scaling factor for safety, the human starting dose of 0.40 mg/wk for a 60 kg human was selected. […] This is particularly relevant because the monkey, although not the most sensitive species, is biologically the more relevant species for the most clinically relevant toxicities (i.e., reduced food intake and vomiting). Clinical observations and PK in Part 1 will ultimately guide dosing considerations in Part 2.
# The pre-clinical safety findings support a 3-fold dose escalation increment to SAD Cohort 2. Subsequent escalations will not exceed 2-fold in either part of the study. Dose titration schemes may be explored if needed to improve tolerability. […] Further, the expectation is the Cmax and AUCtau of the final week of dosing will not exceed the Cmax or AUCinf of a dose in a previously completed and safety-assessed SAD cohort.
# [2] = Phase 1 MAD study of ALT-801: pre-diabetes and metabolic syndrome; assay type: in vivo, human
# [3] = Week 12, 1.2 mg, Baseline 3 (50.0%)
smiles,measurement,setting,value
"CC[C@H](C)[C@H](NC(=O)[C@H](Cc1ccccc1)NC(=O)[C@H](CCC(=O)O)NC(=O)[C@@H]1CCCCNC(=O)CC[C@H](NC(=O)[C@H](CC(=O)O)NC(=O)[C@H](CC(C)C)NC(=O)[C@H](Cc2ccc(O)cc2)NC(=O)[C@H](CCCCN)NC(=O)[C@H](CO)NC(=O)[C@H](Cc2ccc(O)cc2)NC(=O)[C@H](CC(=O)O)NC(=O)[C@H](CO)NC(=O)[C@@H](NC(=O)[C@H](Cc2ccccc2)NC(=O)[C@@H](NC(=O)CNC(=O)[C@H](CCC(N)=O)NC(=O)C(C)(C)NC(=O)[C@@H](N)Cc2c[nH]cn2)[C@@H](C)O)[C@@H](C)O)C(=O)N[C@@H](CCCCNC(=O)[C@H]2O[C@@H](OCCCCCCCCCCCCCCCCCC(=O)O)[C@H](O)[C@@H](O)[C@@H]2O)C(=O)N[C@@H](C)C(=O)N[C@@H](C)C(=O)N1)C(=O)N[C@@H](CCC(N)=O)C(=O)N[C@@H](Cc1c[nH]c2ccccc12)C(=O)N[C@@H](CC(C)C)C(=O)N[C@@H](CC(C)C)C(=O)N[C@@H](CCC(N)=O)C(=O)N[C@H](C(N)=O)[C@@H](C)O [ALT-801, pemvidutide]","monkey NOAEL, equivalent in a 60 kg human",[1]; body surface area scaling,0.49 mg/wk
same,primary findings,[1]; monkeys,weight loss
same,"Metabolic syndrome, %",[2]; [3],50.0%
same,"Pre-diabetes, %",[2]; [3],0.0%
same,"Metabolic syndrome, %","[2]; Week 12, 1.8 mg, Baseline 4 (44.4%)",22.2%
same,"Pre-diabetes, %","[2]; Week 12, 1.8 mg, Baseline 5 (55.6%)",33.3%
same,"Metabolic syndrome, %","[2]; Week 12, 2.4 mg, Baseline 5 (55.6%)",66.7%
same,"Pre-diabetes, %","[2]; Week 12, 2.4 mg, Baseline 7 (77.8%)",11.1%
